Source: patent publication US20090111836A1, “Angular Pyranocoumarins, Process for Preparation and Uses Thereof” (CITY UNIVERSITY OF HONG KONG, priority 2007, published 2009)

Sequences of proteins named here, by UniProt entry; tags and fusion partners are left off.
UniProt P08183, whole entry: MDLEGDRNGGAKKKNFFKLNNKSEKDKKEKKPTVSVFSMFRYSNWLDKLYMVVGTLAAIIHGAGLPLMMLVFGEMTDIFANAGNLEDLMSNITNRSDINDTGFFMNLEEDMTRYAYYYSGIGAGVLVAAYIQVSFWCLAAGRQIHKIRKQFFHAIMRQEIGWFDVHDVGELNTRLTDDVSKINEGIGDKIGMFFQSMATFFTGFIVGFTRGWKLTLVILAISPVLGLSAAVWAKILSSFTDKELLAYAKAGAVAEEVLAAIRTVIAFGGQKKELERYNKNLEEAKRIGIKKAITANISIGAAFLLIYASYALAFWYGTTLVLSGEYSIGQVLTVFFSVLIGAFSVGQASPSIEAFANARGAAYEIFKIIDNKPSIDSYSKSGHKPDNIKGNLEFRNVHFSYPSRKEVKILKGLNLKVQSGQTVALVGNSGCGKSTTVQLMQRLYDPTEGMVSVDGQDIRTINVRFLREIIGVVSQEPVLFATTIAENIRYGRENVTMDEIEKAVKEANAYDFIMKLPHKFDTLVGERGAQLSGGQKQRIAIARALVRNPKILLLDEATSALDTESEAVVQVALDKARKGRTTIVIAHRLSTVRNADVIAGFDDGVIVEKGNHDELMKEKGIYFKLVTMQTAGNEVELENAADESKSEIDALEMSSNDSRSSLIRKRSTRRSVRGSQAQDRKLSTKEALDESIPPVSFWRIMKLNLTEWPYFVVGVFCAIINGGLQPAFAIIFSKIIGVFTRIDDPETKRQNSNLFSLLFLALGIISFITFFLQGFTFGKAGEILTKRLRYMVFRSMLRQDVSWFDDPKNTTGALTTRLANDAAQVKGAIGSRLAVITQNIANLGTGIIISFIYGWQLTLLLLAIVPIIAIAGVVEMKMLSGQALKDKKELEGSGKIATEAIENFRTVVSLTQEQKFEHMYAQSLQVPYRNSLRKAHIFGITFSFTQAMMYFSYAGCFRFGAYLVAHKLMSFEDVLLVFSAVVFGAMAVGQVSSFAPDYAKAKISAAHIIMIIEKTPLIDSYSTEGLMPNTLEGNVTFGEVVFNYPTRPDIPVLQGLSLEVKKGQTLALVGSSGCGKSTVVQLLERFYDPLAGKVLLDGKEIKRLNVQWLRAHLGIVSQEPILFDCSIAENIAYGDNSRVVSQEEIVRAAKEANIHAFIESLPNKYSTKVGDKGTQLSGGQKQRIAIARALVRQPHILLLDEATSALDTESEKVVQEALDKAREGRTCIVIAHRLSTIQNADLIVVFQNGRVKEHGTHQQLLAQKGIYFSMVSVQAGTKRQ

Target: P-gp (Homo sapiens, UniProt P08183)
Assay: MDR1 reactivity shift assay (UIC2 binding to P-gp), HepG2-DR
Settings: control agents, concentration not given

sodium vanadate
Cellular fluorescence (binding of UIC2 to P-gp): decreased
